The target in the experiment is CRF1 receptor (Homo sapiens, UniProt P34998). In words: CRF1 receptor radioligand binding assay ([125I]-oCRF competition, IMR-32 cell membranes). The following applies: [125I]-oCRF (100 pM).
The mark [1] stands for this setting: Additional Compounds from Second Set of Examples (Table 3).
The mark [2] stands for this setting: Second Set of Examples (Table 2).

By UniProt entry, the sequences of proteins in these tests, tags left out. Residues count along the entry.
UniProt P34998, 24-415 limits assumed: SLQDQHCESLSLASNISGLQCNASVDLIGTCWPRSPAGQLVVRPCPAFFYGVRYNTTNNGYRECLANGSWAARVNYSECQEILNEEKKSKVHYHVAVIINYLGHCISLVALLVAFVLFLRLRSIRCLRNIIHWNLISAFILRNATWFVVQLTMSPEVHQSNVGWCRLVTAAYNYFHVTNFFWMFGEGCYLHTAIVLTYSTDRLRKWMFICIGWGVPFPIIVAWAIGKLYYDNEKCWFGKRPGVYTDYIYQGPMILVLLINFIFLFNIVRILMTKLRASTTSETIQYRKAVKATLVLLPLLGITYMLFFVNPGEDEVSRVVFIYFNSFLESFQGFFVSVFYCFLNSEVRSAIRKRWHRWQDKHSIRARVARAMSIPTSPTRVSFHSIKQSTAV

For orientation: IC50 means the concentration that inhibits the measured activity by half. A lower IC50 goes with greater potency in that assay. With `CCCN(Cc1sc(N(CC)c2c(C)cc(C)cc2Cl)nc1C(F)(F)F)CC1CC1`, the IC50 under setting [1] worked out at 94 nM.
For the compound `CCCN(Cc1sc(N(CC)c2ccc(C(C)C)cc2Br)nc1C(F)(F)F)CC1CC1`, the IC50 under setting [1] amounted to 79 nM.
On to `C=CCN(Cc1sc(Nc2c(Cl)cc(Cl)cc2Cl)nc1C(F)(F)F)CC1CC1`, for which the IC50 under setting [2] came out at 68 nM.
`CCCN(Cc1ccc(F)c(F)c1)Cc1sc(Nc2c(Cl)cc(Cl)cc2Cl)nc1C(F)(F)F` returned an IC50 under setting [2] of 78 nM. This IC50 and that of the compound before are within 1.5-fold of each other.
The compound `FC(F)(F)CN(Cc1ccc(Cl)cc1)Cc1sc(Nc2c(Cl)cc(Cl)cc2Cl)nc1C(F)(F)F` came in with an IC50 under setting [2] of 111 nM.

Source of the values: patent US6515005B2, “Substituted azole derivatives as inhibitors of corticotropin releasing factor” (Bristol-Myers Squibb Company, priority 2000, dated 2003).
